{"source": "patent US20260345621A1", "about": "“GABAA RECEPTOR MODULATORS AND USES THEREOF” (Engrail Therapeutics, Inc., priority 2022, published 2026)", "test": "Multiple ascending dose study, safety and tolerability", "conditions": "0.5-5.0 mg, twelve days"}
{"smiles": "CC(C)(O)c1cnn2c(-c3ccc(F)c(-c4c(F)cccc4C#N)c3)cnc2n1", "note": "[Compound 1, 2′,6-difluoro-5′-(3-(2-hydroxypropan-2-yl)imidazo[1,2-b][1,2,4]triazin-7-yl)-[1,1′-biphenyl]-2-carbonitrile]", "values": [{"measurement": "deaths, SAEs, or TEAEs leading to discontinuation", "result": "No deaths, SAEs, or TEAEs leading to discontinuation"}]}
